# Assay results: BindingDB's records for 19853328 (Sri Venkateswara University, 2010)
# The chains behind the UniProt entries cited, without tags or fusion partners. Residues count along the entry.
# UniProt P04762, 2-527 limits assumed: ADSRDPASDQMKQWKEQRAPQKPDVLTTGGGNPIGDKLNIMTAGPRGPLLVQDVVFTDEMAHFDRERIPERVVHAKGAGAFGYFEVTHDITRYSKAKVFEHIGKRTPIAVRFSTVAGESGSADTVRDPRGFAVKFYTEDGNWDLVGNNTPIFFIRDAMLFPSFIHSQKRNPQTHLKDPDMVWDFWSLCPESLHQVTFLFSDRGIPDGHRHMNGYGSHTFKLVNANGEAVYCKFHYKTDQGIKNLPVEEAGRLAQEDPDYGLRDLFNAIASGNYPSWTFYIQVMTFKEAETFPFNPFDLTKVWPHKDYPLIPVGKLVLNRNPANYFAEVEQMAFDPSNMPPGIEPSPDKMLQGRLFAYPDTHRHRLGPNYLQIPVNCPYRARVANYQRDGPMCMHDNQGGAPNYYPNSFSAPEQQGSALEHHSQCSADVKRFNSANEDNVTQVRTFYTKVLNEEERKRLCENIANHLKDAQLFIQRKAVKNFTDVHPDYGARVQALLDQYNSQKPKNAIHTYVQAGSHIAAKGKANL
# Target: Catalase (Rattus norvegicus, UniProt P04762)
# Assay: Inhibition of catalase in Wistar rat brain
row,SMILES,EC50
1,COc1ccc2c3c1O[C@H]1C[C@@H](OP(=O)(Oc4ccc([N+](=O)[O-])cc4)SCCN)C=C[C@@]31CCN(C)C2 (some centres not stated),3.7 µM
2,COc1ccc2c3c1O[C@H]1C[C@@H](OP(=O)(SCCN)N(CCCl)CCCl)C=C[C@@]31CCN(C)C2 (some centres not stated),4.83 µM
